Experimental data taken from patent US7652062B2, “Cyanopyrrole-phenyl amide progesterone receptor modulators and uses thereof” (Wyeth LLC, priority 2005, dated 2010).

System: T47D Cell
Test: T47D Cell Alkaline Phosphate Assay
Conditions: read-out: T47D Cell Alkaline Phosphate Assay IC50; T47D cells

SMILES	IC50 [nM]
Cc1cc(NC#N)ccc1-c1ccc(C#N)n1C	55
Cc1cc(-c2ccc(C#N)n2C)ccc1NC#N	67.1
